From patent US4831155A (priority 1984, dated 1989)

By UniProt entry, the sequences of proteins in these tests, tags left out. Residues count along the entry.
UniProt O42275, 24-633: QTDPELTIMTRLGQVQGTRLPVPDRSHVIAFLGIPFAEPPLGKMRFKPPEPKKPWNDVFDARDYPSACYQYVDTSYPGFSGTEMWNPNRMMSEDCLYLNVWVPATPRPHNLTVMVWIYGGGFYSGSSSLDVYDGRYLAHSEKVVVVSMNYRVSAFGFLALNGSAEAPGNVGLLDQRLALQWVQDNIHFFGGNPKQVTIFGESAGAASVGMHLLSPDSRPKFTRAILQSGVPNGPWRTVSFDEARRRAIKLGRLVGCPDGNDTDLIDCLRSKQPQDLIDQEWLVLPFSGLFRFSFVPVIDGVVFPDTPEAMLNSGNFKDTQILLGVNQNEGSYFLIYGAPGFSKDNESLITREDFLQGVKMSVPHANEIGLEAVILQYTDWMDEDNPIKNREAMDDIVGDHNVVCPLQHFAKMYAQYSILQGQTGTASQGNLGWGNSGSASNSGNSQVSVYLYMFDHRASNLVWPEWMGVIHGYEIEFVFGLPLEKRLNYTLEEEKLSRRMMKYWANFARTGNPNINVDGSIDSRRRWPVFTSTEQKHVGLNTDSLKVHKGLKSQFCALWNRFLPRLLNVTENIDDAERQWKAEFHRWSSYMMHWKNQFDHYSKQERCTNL

Tests used:
[1] = system: acetylcholinesterase (AchE); assay: acetylcholinesterase (AChE) inhibition in the brain and serum after i.p. administration; type: in vivo, rats; settings: n=4; for AChE inhibition, brain (M ± SE): Table I, 10 min, salicylate
Description: The acetylcholinesterase (AchE) inhibition in the brain and serum was tested for the heptyl derivative in comparison with physostigmine. Both physostigmine and heptyl derivative were used in form of salycilate and dissolved in distilled water with carbossimethyl cellulose sodium salt at 2%.
Acetylcholinesterase (AChE) inhibition in the brain
and serum 10 min. after i.p. administration of different
doses of physostigmine and heptyl to rats
Acetylcholinesterase (AChE) inhibition in the brain and in serum after
i.p. administration of equiactive doses of
physostigmine and heptyl, at various time intervals (10-60-120 min.)

[2] = molecular target: T1, acetylcholinesterase originating from "Electrophorus electricus" (Electrophorus electricus, UniProt O42275); settings: read-out: I50 × 10^6
[3] = molecular target: T1, acetylcholinesterase originating from "Electrophorus electricus"; assay: biochemical

CNC(=O)Oc1ccc2c(c1)[C@]1(C)CCN(C)[C@@H]1N2C [Eserine]
AChE inhibition, brain (M ± SE) ([1]; 0.10 mg/kg i.p.): 19.58 ± 11.43% | AChE inhibition, brain (M ± SE) ([1]; 0.20 mg/kg i.p.): 53.70 ± 8.30% | % AChE Inhibition, brain, 10 minutes (M ± SE) ([1]; Table II, i.p. equiactive doses: Phys. 0.2, Hept. 1.0 mg/Kg): 53.70 ± 8.30% | IC50 [2]: 200 nM | Ki [3]: 20 nM
